# Target: tabun-hAChE (Homo sapiens, UniProt P22303)
# Assay: In vitro reactivation of tabun-hAChE
# Conditions: kr2 = kr/KD
structure (smiles),measurement,value
"O/N=C/c1nc(CCCCCNc2c3c(nc4ccccc24)CCCC3)ccc1O [Compound 11, 2-[(1E)-(hydroxyimino)methyl]-6-{5-[(1,2,3,4-tetrahydroacridin-9-yl)amino]pentyl}pyridin-3-ol]",kr2,1 ± 0.12 M⁻¹ s⁻¹
